Measured values taken from PMC8225628, “Bispecific repurposed medicines targeting the viral and immunological arms of COVID-19” (Scientific Reports, 2021).

Target: SARS-CoV-2 PL^pro (Severe acute respiratory syndrome coronavirus 2, UniProt P0DTD1)
Assay: biochemical
Conditions: read-out: PL^pro % inhibition at 10 µM

SMILES: COc1cc(O)c(CC=C(C)C)c(O)c1C(=O)/C=C/c1ccc(O)cc1 [xanthohumol]
- inhibition at 10 µM: 11%
